Sequences of proteins named here, by UniProt entry; tags and fusion partners are left off.
UniProt P61169, whole entry: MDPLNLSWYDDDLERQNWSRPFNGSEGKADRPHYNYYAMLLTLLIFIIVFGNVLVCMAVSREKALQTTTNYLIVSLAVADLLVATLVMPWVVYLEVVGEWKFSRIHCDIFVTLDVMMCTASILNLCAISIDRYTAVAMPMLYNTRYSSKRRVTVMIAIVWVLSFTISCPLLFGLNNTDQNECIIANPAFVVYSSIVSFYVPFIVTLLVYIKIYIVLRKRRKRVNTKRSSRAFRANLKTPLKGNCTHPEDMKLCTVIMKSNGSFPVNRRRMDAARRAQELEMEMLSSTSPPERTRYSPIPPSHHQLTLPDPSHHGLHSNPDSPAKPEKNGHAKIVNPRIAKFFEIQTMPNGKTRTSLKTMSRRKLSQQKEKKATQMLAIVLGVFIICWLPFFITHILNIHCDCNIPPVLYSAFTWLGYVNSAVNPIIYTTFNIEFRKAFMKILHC

In ChEMBL document CHEMBL1133094 (J Med Chem, 2000):

Molecular target: D(2) dopamine receptor (Rattus norvegicus, UniProt P61169)
Assay: Binding Affinity was determined against Dopamine receptor D2 in rat striatal membranes using [3H]- spiperone radioligand.
Assay type: cell membranes, Striatum, Membrane

pKi: 7.26
Compound: CN1CCc2cccc3c2[C@H]1Cc1ccc(O)c(O)c1-3 [APOMORPHINE]

pKi: −log10 of the molar value.
